Results on one compound are retold here after patent US7575889B2, “Compound combinations for inhibiting cell division and methods for their identification and use” (President and Fellows of Harvard College, priority 2001, dated 2009).

The chains behind the UniProt entries cited, without tags or fusion partners. Where a name states a change or a piece, a line headed by the entry shows the natural chain unless it says otherwise.
UniProt P0A9A6: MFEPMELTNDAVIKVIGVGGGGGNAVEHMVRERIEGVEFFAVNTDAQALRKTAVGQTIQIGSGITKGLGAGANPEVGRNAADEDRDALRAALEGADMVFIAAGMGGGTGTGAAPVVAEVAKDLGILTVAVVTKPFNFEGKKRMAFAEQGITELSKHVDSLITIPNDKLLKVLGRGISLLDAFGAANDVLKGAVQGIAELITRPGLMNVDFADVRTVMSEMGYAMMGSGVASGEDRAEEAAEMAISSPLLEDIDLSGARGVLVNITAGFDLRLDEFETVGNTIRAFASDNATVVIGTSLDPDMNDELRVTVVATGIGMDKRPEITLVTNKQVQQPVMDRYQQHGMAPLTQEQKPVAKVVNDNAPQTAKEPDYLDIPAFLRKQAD

This test addresses E. coli FtsZ (FtsZEc) GTPase (Escherichia coli, UniProt P0A9A6). Conditions: read-out: IC50 FtsZEc, 5 min preincubation at 30° C., 1 mM GTP, averages from three determinations. Here is the method: FtsZ was preincubated with varying concentrations of compounds or with 3% DMSO in buffer E for 5 min at 30° C., before adding 1 mM GTP to the reactions. Reaction kinetics were followed by measuring inorganic phosphate released upon GTP hydrolysis. The IC50 values were extrapolated from log dose-response curves and are averages from three independent determinations.

Turning to `C=CCOc1c(Br)cc(S(=O)(=O)c2cc(Br)c(O)c(Br)c2)cc1Br` [18M-04], the 50% inhibitory concentration (IC50) was 25 µM.
